Source: patent US20020045603A1, “Method of inhibiting membrane-type matrix metalloproteinase” (The Research Foundation of State University of New York, priority 1998, published 2002)

Test: Blood levels after oral gavage of adult rats
Settings: orally gavaged

4-hydroxy-4-de(dimethylamino)tetracycline [CMT-6]
blood levels: no detectable blood levels
